Yeast mating assay B: variants of the scFv Ab-14

The measurements come from Li et al. 2023 (doi:10.1038/s41467-023-39022-2) through the FLAb antibody collection.

Binding partner: SARS-CoV-2 spike HR2 peptide, sequence PDVDLGDISGINAS.

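Designed CDR sequences, proposed from the first random library and measured here. Their group label is 14L_GP_Gibbs (GP: Gaussian process model; Gibbs: Gibbs sampling; a sequence that several methods proposed may carry one label only). AlphaSeq pools MATa yeast showing the antibodies with MATalpha yeast showing the peptide. The frequency of each diploid, read from paired DNA barcodes, reflects how well the two displayed proteins bind. The ratio of observed to expected reads was calibrated, replicate by replicate, on BCL2-family standards whose Kd was known from biolayer interferometry. Each pool was mated in six replicate cultures.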

Ab-14 is the parent antibody, in scFv form: VH, then a (GGGGS)3 linker, then VL. The heavy chain is unchanged in all variants.
VH: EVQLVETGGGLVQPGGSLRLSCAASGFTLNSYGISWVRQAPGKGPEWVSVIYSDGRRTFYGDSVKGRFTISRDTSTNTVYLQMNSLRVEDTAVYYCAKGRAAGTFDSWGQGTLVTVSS
VL: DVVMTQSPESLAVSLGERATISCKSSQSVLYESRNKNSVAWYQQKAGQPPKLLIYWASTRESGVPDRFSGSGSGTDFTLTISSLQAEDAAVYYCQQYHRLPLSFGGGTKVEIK

Variants are written as CDR1, CDR2 and CDR3 of the light chain (limits as in the source). Parent: KSSQSVLYESRNKNSVA, WASTRES, QQYHRLPLS.
Values are log10 of the apparent Kd in nM; lower means stronger binding.
The mean shown is taken over the replicates in which the pair was detected.
The range of this assay differs from that of the first round, and the authors advise against merging the two.
Of ten entries with the parent sequence, four were seen in most replicates (averages 0.34 to 2.37), three in one and three in none, so single entries are noisy.
The authors' rule: three or more of the six replicates give a measured affinity, fewer mean a poor binder.
As a blank, each scFv also met three strains without target: over all light chain designs, 4% of these pairings were detected, typically at 2.64 and seldom below 1.59. Also given: how often the same scFv was detected with the empty control strains, with their mean in brackets.

{"CDR-L1": "KQSPQDLYQSRMKNQVA", "CDR-L2": "DASTRES", "CDR-L3": "QQYHRLPLS", "replicates, log10 nM": "0.17 -0.55 -0.90 -0.42 -1.22 -0.50", "mean log10 Kd (nM)": "-0.57", "empty controls": "0/18"}
{"CDR-L1": "KYDFSVLELSRNSNSVA", "CDR-L2": "NASTREE", "CDR-L3": "QDYHRLPLS", "replicates, log10 nM": "0.98 0.38 0.31 0.47 0.24 0.52", "mean log10 Kd (nM)": "0.48", "empty controls": "0/18"}
{"CDR-L1": "KSEDGVDDESRNDNSVA", "CDR-L2": "NASTRES", "CDR-L3": "QQYHRLPLS", "replicates, log10 nM": "0.37 0.16 -0.03 -0.05 0.11 0.28", "mean log10 Kd (nM)": "0.14", "empty controls": "0/18"}
{"CDR-L1": "KYSQSMLYESRNKNNVA", "CDR-L2": "EASTRES", "CDR-L3": "QQYHRLPLS", "replicates, log10 nM": "-0.09 -0.26 -0.44 -0.37 -0.48 -0.19", "mean log10 Kd (nM)": "-0.30", "empty controls": "2/18 (2.79)"}
{"CDR-L1": "KISQWYWYESRNKNSVA", "CDR-L2": "QASTREV", "CDR-L3": "QQYHRLPLS", "replicates, log10 nM": "0.22 0.36 -0.01 -0.06 0.30 0.23", "mean log10 Kd (nM)": "0.17", "empty controls": "1/18 (2.35)"}
{"CDR-L1": "KLQQSELGESRNMNSVA", "CDR-L2": "HASTRES", "CDR-L3": "QDYHRLPLS", "replicates, log10 nM": "0.82 0.49 0.93 0.41 0.43 0.65", "mean log10 Kd (nM)": "0.62", "empty controls": "1/18 (3.14)"}
{"CDR-L1": "KLSMSDLYEWRNFNSVA", "CDR-L2": "NASTREE", "CDR-L3": "QQYHRLPLS", "replicates, log10 nM": "0.12 0.49 0.15 -0.04 -0.03 0.28", "mean log10 Kd (nM)": "0.16", "empty controls": "0/18"}
{"CDR-L1": "KMSQSEDYEERNCNAVA", "CDR-L2": "NASQREE", "CDR-L3": "QQYHRLPLS", "replicates, log10 nM": "0.58 0.53 0.40 0.19 0.24 0.36", "mean log10 Kd (nM)": "0.38", "empty controls": "0/18"}
{"CDR-L1": "KLMTSDLYESRMVNAVA", "CDR-L2": "EASTRMD", "CDR-L3": "QQYHRLPLS", "replicates, log10 nM": "2.09 0.96 0.92 1.23 1.52 1.45", "mean log10 Kd (nM)": "1.36", "empty controls": "1/18 (2.79)"}
{"CDR-L1": "KCSQSVLQESRNKNSVA", "CDR-L2": "EASQRER", "CDR-L3": "QQYHRLPLS", "replicates, log10 nM": "0.63 0.72 0.63 1.39 0.63 0.83", "mean log10 Kd (nM)": "0.80", "empty controls": "0/18"}
{"CDR-L1": "KSMQSVPYEDRNKNSVA", "CDR-L2": "EASTRCS", "CDR-L3": "QQYHRLPLS", "replicates, log10 nM": "0.19 0.18 0.24 -0.02 0.05 0.14", "mean log10 Kd (nM)": "0.13", "empty controls": "4/18 (3.05)"}
{"CDR-L1": "KWMQMVMQESRNKNSVA", "CDR-L2": "NASTRMQ", "CDR-L3": "QQYHRLPLS", "replicates, log10 nM": "0.78 0.44 0.55 0.30 0.50 0.90", "mean log10 Kd (nM)": "0.58", "empty controls": "2/18 (2.58)"}
{"CDR-L1": "KLMMSGLYESRNKNSVA", "CDR-L2": "EASTRES", "CDR-L3": "QDYHRLPLS", "replicates, log10 nM": "0.31 0.24 0.21 -0.07 -0.05 0.24", "mean log10 Kd (nM)": "0.15", "empty controls": "0/18"}
{"CDR-L1": "KLQQSELMEERNSNSVA", "CDR-L2": "SASLRES", "CDR-L3": "QQYHRLPLS", "replicates, log10 nM": "0.35 0.24 -0.03 -0.04 -0.05 0.23", "mean log10 Kd (nM)": "0.12", "empty controls": "3/18 (2.32)"}
{"CDR-L1": "KLSMQVMMESRNTNSVA", "CDR-L2": "EANTREE", "CDR-L3": "QQYHRLPLS", "replicates, log10 nM": "1.48 1.95 1.09 1.42 1.78 1.36", "mean log10 Kd (nM)": "1.51", "empty controls": "1/18 (2.30)"}
{"CDR-L1": "HLEQSSPYESRNKNSVA", "CDR-L2": "NASLRCS", "CDR-L3": "QQYHRLPLS", "replicates, log10 nM": "0.89 0.63 0.66 0.32 0.29 1.29", "mean log10 Kd (nM)": "0.68", "empty controls": "0/18"}
{"CDR-L1": "KVSYLGLYGSRNKNSVA", "CDR-L2": "EASTRES", "CDR-L3": "QQYHRLPLD", "replicates, log10 nM": "0.59 0.43 0.44 0.25 0.41 0.65", "mean log10 Kd (nM)": "0.46", "empty controls": "2/18 (3.39)"}
{"CDR-L1": "KLMGSMLYESRNTNSVA", "CDR-L2": "HASHRES", "CDR-L3": "QQYHRLPLS", "replicates, log10 nM": "-0.04 0.27 -0.23 0.06 -0.45 -0.39", "mean log10 Kd (nM)": "-0.13", "empty controls": "0/18"}
{"CDR-L1": "KLDPSDLGESRNKNAVA", "CDR-L2": "QASTREI", "CDR-L3": "QQYHRLPLS", "replicates, log10 nM": "-0.09 0.14 -0.19 -0.25 -0.16 -0.07", "mean log10 Kd (nM)": "-0.10", "empty controls": "1/18 (2.02)"}
{"CDR-L1": "KVSPEVEYESRLKNSVA", "CDR-L2": "NASTRLE", "CDR-L3": "QQYHRLPLS", "replicates, log10 nM": "1.83 1.65 1.16 0.90 2.11 1.91", "mean log10 Kd (nM)": "1.59", "empty controls": "1/18 (2.84)"}
{"CDR-L1": "KISQSQLYESRNTKSVA", "CDR-L2": "NASTRVS", "CDR-L3": "QQYHRLPLS", "replicates, log10 nM": "0.32 0.12 0.01 -0.01 -0.03 0.11", "mean log10 Kd (nM)": "0.09", "empty controls": "4/18 (3.20)"}
{"CDR-L1": "KQSQSVLYGERNGNSVA", "CDR-L2": "NASYRLS", "CDR-L3": "QQYHRLPLS", "replicates, log10 nM": "0.79 1.02 0.48 0.58 0.80 0.63", "mean log10 Kd (nM)": "0.72", "empty controls": "0/18"}
{"CDR-L1": "KVSQSVLQQSRNSNSVA", "CDR-L2": "EASTREE", "CDR-L3": "QQYHRLPLS", "replicates, log10 nM": "0.12 -0.08 -0.17 -0.38 -0.16 -0.13", "mean log10 Kd (nM)": "-0.13", "empty controls": "1/18 (2.60)"}

The last 3 entries again:

{"CDR-L1": "KISQSQLYESRNTKSVA", "CDR-L2": "NASTRVS", "CDR-L3": "QQYHRLPLS", "replicates, log10 nM": "0.32 0.12 0.01 -0.01 -0.03 0.11", "mean log10 Kd (nM)": "0.09", "empty controls": "4/18 (3.20)"}
{"CDR-L1": "KQSQSVLYGERNGNSVA", "CDR-L2": "NASYRLS", "CDR-L3": "QQYHRLPLS", "replicates, log10 nM": "0.79 1.02 0.48 0.58 0.80 0.63", "mean log10 Kd (nM)": "0.72", "empty controls": "0/18"}
{"CDR-L1": "KVSQSVLQQSRNSNSVA", "CDR-L2": "EASTREE", "CDR-L3": "QQYHRLPLS", "replicates, log10 nM": "0.12 -0.08 -0.17 -0.38 -0.16 -0.13", "mean log10 Kd (nM)": "-0.13", "empty controls": "1/18 (2.60)"}